Data taken from the NIST ThermoML archive (doi:10.1021/je5004912).

Assay: excess molar enthalpy (molar enthalpy of mixing); xn = mol fraction of the nth substance listed
Conditions: 101 kPa, Liquid, Flow calorimetry

CCCCOCCCC [dibutyl ether] + CCCO
excess molar enthalpy [kcal/mol]
Conditions | 298.15 K | 313.15 K
x1 = 0.0501 | 0.0311 | –
x1 = 0.0502 | – | 0.0359
x1 = 0.0998 | 0.0602 | 0.0696
x1 = 0.15 | 0.0882 | –
x1 = 0.1501 | – | 0.101
x1 = 0.2 | 0.114 | –
x1 = 0.2001 | – | 0.131
x1 = 0.2495 | 0.137 | 0.157
x1 = 0.2999 | 0.158 | –
x1 = 0.3 | – | 0.181
x1 = 0.35 | 0.177 | 0.201
x1 = 0.3998 | 0.193 | –
x1 = 0.3999 | – | 0.219
x1 = 0.4499 | 0.206 | –
x1 = 0.45 | – | 0.233
x1 = 0.4997 | 0.216 | 0.244
x1 = 0.5498 | 0.223 | 0.251
x1 = 0.5998 | 0.227 | –
x1 = 0.5999 | – | 0.255
x1 = 0.6494 | 0.227 | –
x1 = 0.6495 | – | 0.254
x1 = 0.6995 | 0.223 | –
x1 = 0.6996 | – | 0.249
x1 = 0.7499 | 0.214 | 0.237
x1 = 0.8002 | 0.199 | 0.218
x1 = 0.8501 | 0.175 | 0.19
x1 = 0.8992 | 0.14 | 0.15
x1 = 0.9492 | 0.0844 | 0.0887
